The text below walks through data of ChEMBL document CHEMBL1145407, “Structure-activity relationships of alpha-ketooxazole inhibitors of fatty acid amide hydrolase” (J Med Chem, 2007).

Assay [1] is described as follows: Selectivity for rat recombinant FAAH over KIAA1363.
Assay [2] is described as follows: Selectivity for rat recombinant FAAH over TGH.

Consider `O=C(CCc1ccc(Oc2ccccc2)cc1)c1ncc(-c2ccccn2)o1`, for which the Ratio IC50 in assay [1] is greater than 50000; in assay [2], 100.
